Experimental data taken from PMC12340637, “Transport of Small Aliphatic Amines by Polyspecific Solute Carriers: Deciphering Structure–Function Relationships” (ACS Pharmacology & Translational Science, 2025).
Like-named read-outs stand apart in the source and are kept apart here. Marks after values point to notes of the source that are not given here.

Key:
[1] = target: T1, OCT1 (SLC22A1) (Homo sapiens, UniProt O15245); assay: Cellular uptake into OCT1-overexpressing HEK293 cells vs EV control cells (HPLC-MS/MS)
T1 sequence (O15245 1-554): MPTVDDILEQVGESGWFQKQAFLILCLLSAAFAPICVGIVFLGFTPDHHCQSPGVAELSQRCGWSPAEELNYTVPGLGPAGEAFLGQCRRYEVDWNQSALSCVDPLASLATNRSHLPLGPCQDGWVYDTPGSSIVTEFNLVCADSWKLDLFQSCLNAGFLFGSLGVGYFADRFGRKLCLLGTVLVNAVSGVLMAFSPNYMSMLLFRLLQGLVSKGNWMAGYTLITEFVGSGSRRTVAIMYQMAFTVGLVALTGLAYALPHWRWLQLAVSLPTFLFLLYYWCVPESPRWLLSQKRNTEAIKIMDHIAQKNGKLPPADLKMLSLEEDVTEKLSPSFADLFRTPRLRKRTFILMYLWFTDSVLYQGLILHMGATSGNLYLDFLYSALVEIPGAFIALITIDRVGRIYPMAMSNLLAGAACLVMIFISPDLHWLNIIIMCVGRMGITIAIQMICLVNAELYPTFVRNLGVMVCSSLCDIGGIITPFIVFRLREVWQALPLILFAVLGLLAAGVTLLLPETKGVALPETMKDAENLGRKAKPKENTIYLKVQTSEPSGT

[2] = target: T2, OCT2 (SLC22A2) (Homo sapiens, UniProt O15244); assay: Cellular uptake into OCT2-overexpressing HEK293 cells vs EV control cells (HPLC-MS/MS)
T2 sequence (O15244 1-555): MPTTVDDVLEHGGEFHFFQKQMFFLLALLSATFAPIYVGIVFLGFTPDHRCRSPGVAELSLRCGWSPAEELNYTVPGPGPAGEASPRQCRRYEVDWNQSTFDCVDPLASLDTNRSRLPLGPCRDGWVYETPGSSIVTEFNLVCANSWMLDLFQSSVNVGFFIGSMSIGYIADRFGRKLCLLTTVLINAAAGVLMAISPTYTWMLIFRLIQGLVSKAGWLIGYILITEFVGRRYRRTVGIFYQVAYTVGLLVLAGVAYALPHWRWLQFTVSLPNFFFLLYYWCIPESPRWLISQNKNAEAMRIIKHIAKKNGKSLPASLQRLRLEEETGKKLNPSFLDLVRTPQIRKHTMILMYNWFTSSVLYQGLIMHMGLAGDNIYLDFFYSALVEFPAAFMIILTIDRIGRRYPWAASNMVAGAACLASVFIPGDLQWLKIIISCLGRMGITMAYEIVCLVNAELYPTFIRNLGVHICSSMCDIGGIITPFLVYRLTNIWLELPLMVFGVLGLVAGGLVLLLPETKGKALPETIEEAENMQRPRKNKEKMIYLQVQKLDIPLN

[3] = target: T3, OCT3 (SLC22A3) (Homo sapiens, UniProt O75751); assay: Cellular uptake into OCT3-overexpressing HEK293 cells vs EV control cells (HPLC-MS/MS); settings: 10 μM substrate, 2 min
T3 sequence (O75751 1-556): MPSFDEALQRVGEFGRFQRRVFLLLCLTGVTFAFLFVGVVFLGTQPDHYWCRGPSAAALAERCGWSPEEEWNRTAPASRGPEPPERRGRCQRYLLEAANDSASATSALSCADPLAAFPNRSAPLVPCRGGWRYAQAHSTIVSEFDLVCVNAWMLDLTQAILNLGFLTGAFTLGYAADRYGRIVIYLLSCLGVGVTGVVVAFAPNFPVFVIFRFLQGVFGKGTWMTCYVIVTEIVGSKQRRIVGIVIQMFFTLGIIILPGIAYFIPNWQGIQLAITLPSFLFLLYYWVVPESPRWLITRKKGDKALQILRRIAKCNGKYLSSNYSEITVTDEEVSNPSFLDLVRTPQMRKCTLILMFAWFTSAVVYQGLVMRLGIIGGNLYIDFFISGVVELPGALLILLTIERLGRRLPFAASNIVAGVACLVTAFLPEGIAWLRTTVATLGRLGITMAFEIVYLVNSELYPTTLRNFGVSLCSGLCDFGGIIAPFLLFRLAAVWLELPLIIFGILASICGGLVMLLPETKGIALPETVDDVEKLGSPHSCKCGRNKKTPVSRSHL

[4] = target: T4, MATE2-K (SLC47A2) (Homo sapiens, UniProt Q86VL8); assay: Cellular uptake into MATE2-K-overexpressing HEK293 cells vs EV control cells (HPLC-MS/MS)
T4 sequence (Q86VL8 1-566 isoform Q86VL8-3): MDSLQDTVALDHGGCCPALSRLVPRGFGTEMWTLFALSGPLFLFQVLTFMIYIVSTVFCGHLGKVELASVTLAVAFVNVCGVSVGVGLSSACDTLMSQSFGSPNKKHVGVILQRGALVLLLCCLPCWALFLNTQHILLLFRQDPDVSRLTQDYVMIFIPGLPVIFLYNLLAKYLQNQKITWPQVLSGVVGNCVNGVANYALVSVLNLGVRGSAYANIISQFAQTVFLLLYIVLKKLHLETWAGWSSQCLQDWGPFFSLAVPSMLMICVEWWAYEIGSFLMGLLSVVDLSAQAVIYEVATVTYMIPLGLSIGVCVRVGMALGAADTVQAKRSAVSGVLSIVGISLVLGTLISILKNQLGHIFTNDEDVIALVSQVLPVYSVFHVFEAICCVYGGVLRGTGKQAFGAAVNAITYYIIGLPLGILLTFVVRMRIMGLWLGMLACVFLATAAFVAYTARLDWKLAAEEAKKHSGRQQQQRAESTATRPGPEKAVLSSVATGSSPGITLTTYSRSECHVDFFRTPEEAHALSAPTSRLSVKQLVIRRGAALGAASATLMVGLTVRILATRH

[5] = target: T5, MATE1 (SLC47A1) (Homo sapiens, UniProt Q96FL8); assay: Cellular uptake into MATE1-overexpressing HEK293 cells vs EV control cells (HPLC-MS/MS)
T5 sequence (Q96FL8 1-570): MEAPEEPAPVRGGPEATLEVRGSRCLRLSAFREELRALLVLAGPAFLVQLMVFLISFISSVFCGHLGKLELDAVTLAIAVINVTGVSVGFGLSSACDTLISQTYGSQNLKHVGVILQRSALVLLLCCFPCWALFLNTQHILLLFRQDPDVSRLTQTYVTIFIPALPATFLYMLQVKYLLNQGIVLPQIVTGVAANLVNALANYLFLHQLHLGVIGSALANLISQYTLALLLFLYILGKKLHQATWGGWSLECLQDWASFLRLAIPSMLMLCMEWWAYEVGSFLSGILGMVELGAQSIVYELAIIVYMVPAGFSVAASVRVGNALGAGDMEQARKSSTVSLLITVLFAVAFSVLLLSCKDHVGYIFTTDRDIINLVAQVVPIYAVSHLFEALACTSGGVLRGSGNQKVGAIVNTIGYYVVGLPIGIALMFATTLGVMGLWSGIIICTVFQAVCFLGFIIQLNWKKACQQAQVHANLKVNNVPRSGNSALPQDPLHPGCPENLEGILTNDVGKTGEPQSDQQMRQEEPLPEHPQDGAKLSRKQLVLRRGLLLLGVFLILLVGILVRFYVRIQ

[6] = target: T2, OCT2 (SLC22A2)
[7] = target: T1, OCT1 (SLC22A1)
[8] = target: T4, MATE2-K (SLC47A2)
[9] = target: T5, MATE1 (SLC47A1)

Question: What does the source list for `OCCNCCO` [diethanolamine]?
Answer: uptake ratio OCT1 (transporter-overexpressing cells over EV control cells): mean (±SD, N) ([1]; 10 μM substrate, 2 min, HEK293): 1.2 (0.5, 4); uptake ratio OCT2 (transporter-overexpressing cells over EV control cells): mean (±SD, N) ([2]; 10 μM substrate, 2 min, HEK293): 0.7 (0.2, 4); uptake ratio OCT3 (transporter-overexpressing cells over EV control cells): mean (±SD, N) [3]: 1.2 (0.3, 4); uptake ratio MATE2K (transporter-overexpressing cells over EV control cells): mean (±SD, N) ([4]; 2.5 μM substrate, 1 min, 30 mM NH4Cl preincubation, HEK293): 1.4 (0.3, 4); uptake ratio MATE1 (transporter-overexpressing cells over EV control cells): mean (±SD, N) [5]: 1.0 (0.2, 4)

Question: With `C[C@H](O)CN` [(S)-(+)-1-amino-2-propanol] as the compound, how does the “stereoselectivity OCT2 (uptake ratio of the more strongly transported enantiomer divided by that of the other)” value [6] read?
Answer: 1.3-fold for (S)

Question: And the “stereoselectivity OCT1 (uptake ratio of the more strongly transported enantiomer divided by that of the other)” value [7]?
Answer: 1.1-fold for (S)

Question: `CN(CCCN)CCCN` [3,3′-diamino-N-methyldipropylamin] was tested. Which “uptake ratio OCT1 (transporter-overexpressing cells over EV control cells): mean (±SD, N)” value ([1]; 10 μM substrate, 2 min, HEK293) did it give?
Answer: - ^d

Question: What about the “substrate activity at OCT2 (in words)” value [2] of the same compound?
Answer: did not show any substrate activity

Question: And the “uptake ratio OCT2 (transporter-overexpressing cells over EV control cells): mean (±SD, N)” value [2]?
Answer: - ^d

Question: And the “uptake ratio OCT3 (transporter-overexpressing cells over EV control cells): mean (±SD, N)” value [3]?
Answer: - ^d

Question: What about the “uptake ratio MATE2K (transporter-overexpressing cells over EV control cells): mean (±SD, N)” value [4] of the same compound?
Answer: 1.0 (0.7, 5)

Question: What about the “substrate activity at MATE1 (in words)” value [5] of the same compound?
Answer: did not show any substrate activity

Question: And the “uptake ratio MATE1 (transporter-overexpressing cells over EV control cells): mean (±SD, N)” value [5]?
Answer: 1.7 (1.3, 5)

Question: For `C[C@@H](O)CN` [(R)-(−)-1-amino-2-propanol], which “stereoselectivity MATE2K (uptake ratio of the more strongly transported enantiomer divided by that of the other)” value [8] is on record?
Answer: 1.3-fold for (R)

Question: What about the “stereoselectivity MATE1 (uptake ratio of the more strongly transported enantiomer divided by that of the other)” value [9] of the same compound?
Answer: 1.1-fold for (R)

Question: How did the “uptake ratio OCT1 (transporter-overexpressing cells over EV control cells): mean (±SD, N)” value [1] turn out when `NCCCO` [3-amino-1-propanol] was run?
Answer: 1.4 (0.5, 5)

Question: And the “uptake ratio OCT2 (transporter-overexpressing cells over EV control cells): mean (±SD, N)” value [2]?
Answer: 4.0 (0.8, 4) ^b

Question: What about the “uptake ratio OCT3 (transporter-overexpressing cells over EV control cells): mean (±SD, N)” value [3] of the same compound?
Answer: 1.0 (0.2, 4)

Question: What about the “uptake ratio MATE2K (transporter-overexpressing cells over EV control cells): mean (±SD, N)” value [4] of the same compound?
Answer: 1.1 (0.1, 4)

Question: And the “uptake ratio MATE1 (transporter-overexpressing cells over EV control cells): mean (±SD, N)” value [5]?
Answer: 1.5 (0.4, 4)

Question: What does the source list for `C[C@H](N)CO` [(S)-(+)-2-Amino-1-propanol]?
Answer: stereoselectivity MATE1 (uptake ratio of the more strongly transported enantiomer divided by that of the other) [9]: 1.2-fold for (S); stereoselectivity OCT2 (uptake ratio of the more strongly transported enantiomer divided by that of the other) [6]: 3.5-fold for(S) ^b; stereoselectivity OCT1 (uptake ratio of the more strongly transported enantiomer divided by that of the other) [7]: 1.2-fold for (S)
